Assay results: ChEMBL document CHEMBL6182939, “Searching for Synthetic Opioid Rescue Agents. 2: Identification of an Ultra-Potent Synthetic Opioid Rescue Agent” (J Med Chem, 2025)

Protein sequences, listed by entry. Tags and fused reporters are not part of them. Lines headed by an entry give the natural chain unless they say otherwise; changes in a name come on top.
UniProt P41145: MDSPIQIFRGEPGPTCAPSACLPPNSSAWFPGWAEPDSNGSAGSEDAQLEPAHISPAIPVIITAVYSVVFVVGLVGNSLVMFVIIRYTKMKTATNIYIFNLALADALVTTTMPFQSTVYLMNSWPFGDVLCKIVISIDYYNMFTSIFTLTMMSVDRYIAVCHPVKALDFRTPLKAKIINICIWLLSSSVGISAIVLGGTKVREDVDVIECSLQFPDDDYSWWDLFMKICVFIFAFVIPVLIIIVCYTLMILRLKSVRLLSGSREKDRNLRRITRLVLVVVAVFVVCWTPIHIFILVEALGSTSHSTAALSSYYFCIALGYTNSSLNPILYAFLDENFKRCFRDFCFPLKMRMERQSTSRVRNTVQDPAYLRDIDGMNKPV
UniProt P41143, whole entry: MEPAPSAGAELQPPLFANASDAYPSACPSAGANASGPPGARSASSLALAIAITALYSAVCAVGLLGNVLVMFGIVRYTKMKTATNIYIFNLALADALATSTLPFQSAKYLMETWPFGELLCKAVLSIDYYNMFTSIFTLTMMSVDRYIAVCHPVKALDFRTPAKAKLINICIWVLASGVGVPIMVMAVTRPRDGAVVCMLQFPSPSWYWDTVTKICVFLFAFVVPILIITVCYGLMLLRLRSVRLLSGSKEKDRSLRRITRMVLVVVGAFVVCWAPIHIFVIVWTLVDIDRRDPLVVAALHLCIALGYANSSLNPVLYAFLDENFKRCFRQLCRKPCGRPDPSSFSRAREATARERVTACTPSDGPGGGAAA

What was measured:
[1] = molecular target: Kappa-type opioid receptor (Homo sapiens, UniProt P41145)
[2] = molecular target: T1, Delta-type opioid receptor (Homo sapiens, UniProt P41143)
[3] = molecular target: T1, Delta-type opioid receptor; test: Antagonist activity against human DOR expressed in CHO-K1 cells assessed as maximal inhibition of forskolin-induced cAMP accumulation pretreated for 15 mins followed by forskolin addition measured after 30 mins by HitHunter cAMP assay normalized to naltrexone; type: functional, cell-based; conditions: filed as antagonist, time 45.0 min

Compound | IC50 [1] [nM] | IC50 [2] [nM] | Imax [3] [%]
NC(=O)c1ccc(Oc2ccc(CNCCc3ccccc3)cc2)nc1 | 10 |  | 
C=C1CC[C@@]2(O)[C@H]3Cc4ccc(O)c5c4[C@@]2(CCN3CC2CC2)[C@H]1O5 |  | 126 | 90.5
NC(=O)c1ccc(Oc2ccc(CNCCc3ccccc3)cc2)cc1 |  | 3.16 | 190
